Legend:
Conditions in all cases: MV-4-11, MOLM-13 and MOLM-14 cells, 4 hours; Compound 1 0.001-0.3 μM, AC220 0.1 μM
STAT5 = experiment: Signaling pathways of FLT3 in cells: STAT5 phosphorylation; type: cell-based, human
C-Myc = tested on: C-Myc
protein kinase FLT3 = tested on: protein kinase FLT3

## CC(C)(C)c1cc(NC(=O)Nc2ccc(-c3cn4c(n3)sc3cc(OCCN5CCOCC5)ccc34)cc2)no1 [AC220, reference compound]
STAT5
  phosphorylation of STAT5: also inhibited phosphorylation
C-Myc
  degradation of C-Myc: comparable to that of Compound 1 at 0.001 μM
Protein kinase FLT3
  phosphorylation of the protein kinase FLT3: also inhibited phosphorylation
